Assay results as given in ChEMBL document CHEMBL1149139, “Azasugar-based MMP/ADAM inhibitors as antipsoriatic agents” (J Med Chem, 2004).

The chains behind the UniProt entries cited, without tags or fusion partners. Where a name states a change or a piece, a line headed by the entry shows the natural chain unless it says otherwise.
UniProt P14780: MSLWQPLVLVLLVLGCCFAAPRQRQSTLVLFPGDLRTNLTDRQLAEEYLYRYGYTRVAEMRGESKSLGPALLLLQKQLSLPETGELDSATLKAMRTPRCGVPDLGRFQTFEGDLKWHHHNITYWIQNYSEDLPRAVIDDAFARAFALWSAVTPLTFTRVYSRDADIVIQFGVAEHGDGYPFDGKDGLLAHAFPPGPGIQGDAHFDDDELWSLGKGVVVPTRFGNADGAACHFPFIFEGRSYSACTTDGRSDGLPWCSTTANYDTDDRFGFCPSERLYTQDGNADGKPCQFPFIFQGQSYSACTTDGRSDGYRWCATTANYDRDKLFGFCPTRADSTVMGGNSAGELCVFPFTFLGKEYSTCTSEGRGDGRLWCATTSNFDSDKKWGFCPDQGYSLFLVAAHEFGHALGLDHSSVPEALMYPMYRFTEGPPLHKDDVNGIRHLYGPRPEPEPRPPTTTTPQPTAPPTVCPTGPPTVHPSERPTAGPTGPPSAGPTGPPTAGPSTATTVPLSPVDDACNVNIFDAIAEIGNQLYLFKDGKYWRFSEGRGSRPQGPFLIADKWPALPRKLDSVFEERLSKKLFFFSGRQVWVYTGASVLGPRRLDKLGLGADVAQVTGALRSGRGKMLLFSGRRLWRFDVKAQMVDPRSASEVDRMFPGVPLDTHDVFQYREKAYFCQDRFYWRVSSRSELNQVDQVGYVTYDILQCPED

Biological target: Matrix metalloproteinase-9 (Homo sapiens, UniProt P14780)
Assay: Inhibition of human recombinant matrix metalloprotease 9

Ki: 2 nM
Structure (SMILES): COc1ccc(S(=O)(=O)N2C[C@@H](O)[C@@H](O)[C@H](O)[C@@H]2C(=O)NO)cc1
